{"source": "PubChem BioAssay AID602163", "about": "(The Scripps Research Institute Molecular Screening Center, 2012)", "note": "This is a selection; strong and weak results do not stand in their true shares. Some structures show a salt or complex split into parts, the way the source records it. Active and inactive are the calls of the source. Rule as the data show it: active = activation above about 7.5%; inactive = the rest."}
{"test_system": "Methionine sulfoxide reductase A (Bos taurus)", "assay": "activation of methionine sulfoxide reductase A – biochemical, absorbance, bovine, HTS, primary screen (AID 602163);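 also: 0% = vehicle and 100% = reference activator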", "conditions": "purified bovine MsrA, absorbance read-out; at 10.6 µM; hits give high values"}
{"smiles": "Cc1c(C(c2ccc3c(c2)OCO3)c2c(C)n(C)n(-c3ccccc3)c2=O)c(=O)n(-c2ccccc2)n1C.O=[N+]([O-])c1cc([N+](=O)[O-])c(O)c([N+](=O)[O-])c1", "activation": "inactive: -2.28%"}
{"smiles": "O=[N+]([O-])c1ccc(OP2(=O)COCCO2)cc1", "note": "(centres undefined)", "activation": "inactive: -0.18%"}
{"smiles": "O=[N+]([O-])c1cc([N+](=O)[O-])c(NCC2CCS(=O)(=O)C2)c([N+](=O)[O-])c1", "note": "(centres undefined)", "activation": "inactive: -0.27%"}
{"smiles": "Cc1cc(-c2cccc3ccccc23)c(C)cn1.O=[N+]([O-])c1cc([N+](=O)[O-])c(O)c([N+](=O)[O-])c1", "activation": "inactive: -8.23%"}
{"smiles": "CN(C)CCOC(=O)C(O)(c1ccccc1)C1CCCCC1", "note": "(centres undefined)", "activation": "inactive: -1.18%"}
{"smiles": "COc1ccc(NP(C)(=O)Oc2ccccc2OC)cc1", "note": "(centres undefined)", "activation": "inactive: -1.42%"}
{"smiles": "COc1ccc(OP(C)(=O)Nc2cccc(Br)c2)cc1", "note": "(centres undefined)", "activation": "inactive: 0.17%"}
{"smiles": "Cc1ccccc1NP(C)(=O)Nc1ccccc1C", "activation": "inactive: -0.92%"}
{"smiles": "O=[N+]([O-])c1cc([N+](=O)[O-])c(C(F)(F)F)c([N+](=O)[O-])c1O", "activation": "inactive: 0%"}
{"smiles": "CP(=O)(Nc1ccc2c(c1)OCCO2)Oc1ccccc1", "note": "(centres undefined)", "activation": "inactive: 0%"}
{"smiles": "CCOP(C)(=S)SCC(=O)NC(C)(CC)C(=O)O", "note": "(centres undefined)", "activation": "inactive: 0.09%"}
{"smiles": "CP(=O)(Nc1ccc(SC(F)(F)F)cc1)Oc1ccc(F)cc1", "note": "(centres undefined)", "activation": "inactive: -3.13%"}
{"smiles": "COc1ccc2c(c1O)-c1c(O)c(OC)cc3c1[C@H](C2)[N+](C)(C)CC3.O=[N+]([O-])c1cc([N+](=O)[O-])c([O-])c([N+](=O)[O-])c1[O-]", "activation": "inactive: -5.1%"}
{"smiles": "O=C(OC1CN2CCC1CC2)c1ccc([N+](=O)[O-])cc1", "note": "(centres undefined)", "activation": "inactive: 0.7%"}
{"smiles": "O=C(OCCN1CCN(CCOCc2ccccc2)CC1)C(O)(c1ccccc1)c1ccccc1", "activation": "inactive: -5.68%"}
{"smiles": "CP(=O)(Nc1ccccc1F)Oc1ccccc1", "note": "(centres undefined)", "activation": "inactive: -1.17%"}
{"smiles": "CC(C)c1ccc(OP(C)(=O)Nc2ccc(SC(F)(F)F)cc2)cc1", "note": "(centres undefined)", "activation": "inactive: 1.04%"}
{"smiles": "O=[N+]([O-])c1cc([N+](=O)[O-])c(Nc2ccc(Cl)cc2)c([N+](=O)[O-])c1", "activation": "inactive: 3.44%"}
{"smiles": "CP(=O)(Nc1ccccc1)Oc1ccc(F)cc1", "note": "(centres undefined)", "activation": "inactive: -0.75%"}
{"smiles": "CCCCCOc1ccc(NP(C)(=O)Oc2ccc(Cl)cc2Cl)cc1", "note": "(centres undefined)", "activation": "inactive: 2.59%"}
{"smiles": "O=[N+]([O-])c1cc([N+](=O)[O-])c(OC2CCCCC2O)c([N+](=O)[O-])c1", "note": "(centres undefined)", "activation": "inactive: -3.02%"}
{"smiles": "Cc1c([N+](=O)[O-])cc([N+](=O)[O-])c(Br)c1[N+](=O)[O-]", "activation": "inactive: -2.03%"}
{"smiles": "CCN(CC)CCCOC(=O)C(O)(c1ccccc1)C1CCCCC1", "note": "(centres undefined)", "activation": "inactive: -1.38%"}
{"smiles": "CCOC(=O)c1ccc(NP(C)(=O)Oc2ccc(F)cc2)cc1", "note": "(centres undefined)", "activation": "inactive: -4.38%"}
{"smiles": "COc1ccc(OP(C)(=O)Nc2ccc(SC(F)(F)F)cc2)cc1", "note": "(centres undefined)", "activation": "inactive: -0.93%"}
{"smiles": "CCN(CC)CCCNc1ccccc1[N+](=O)[O-].O=[N+]([O-])c1cc([N+](=O)[O-])c(O)c([N+](=O)[O-])c1", "activation": "inactive: -5.46%"}
{"smiles": "CP(=O)(OCCOc1ccccc1)OCCOc1ccccc1", "activation": "inactive: -6.81%"}
{"smiles": "CCCCCCCCCCCCCCCC1C[N+](C)(C)CCOP(C)(=O)O1", "note": "(centres undefined)", "activation": "inactive: -2.58%"}
{"smiles": "CP(=O)(Nc1ccc(Cl)cc1Cl)Oc1ccccc1", "note": "(centres undefined)", "activation": "inactive: -5.85%"}
{"smiles": "COc1ccccc1OP(C)(=O)Nc1ccc(C)c(C)c1", "note": "(centres undefined)", "activation": "inactive: -1.04%"}
{"smiles": "COc1ccc(OP(C)(=O)Nc2ccccc2Br)cc1", "note": "(centres undefined)", "activation": "inactive: -3.54%"}
{"smiles": "Cc1cc(C)cc(OP(C)(=O)Nc2cccc(C(F)(F)F)c2)c1", "note": "(centres undefined)", "activation": "inactive: -6.75%"}
{"smiles": "O=C1C(O)=C([N+](=O)[O-])C(=O)C(O)=C1[N+](=O)[O-]", "activation": "inactive: -3.73%"}
{"smiles": "COc1ccccc1OP(C)(=O)Nc1ccc(C)cc1C", "note": "(centres undefined)", "activation": "inactive: -5.92%"}
{"smiles": "CP(=O)(Nc1ccccn1)Oc1ccccc1", "note": "(centres undefined)", "activation": "inactive: -10.8%"}
{"smiles": "CCc1ccc(OP(C)(=O)O)cc1", "activation": "inactive: -5.06%"}
{"smiles": "O=[N+]([O-])c1cc([N+](=O)[O-])c(Nc2ccccn2)c([N+](=O)[O-])c1", "activation": "inactive: 1.15%"}
{"smiles": "Cc1c(NP(C)(=O)Oc2ccc(C(C)C)cc2)c(=O)n(-c2ccccc2)n1C", "note": "(centres undefined)", "activation": "inactive: -1.12%"}
{"smiles": "COc1ccc(OP(C)(=O)Nc2ccccn2)cc1", "note": "(centres undefined)", "activation": "inactive: -2.55%"}
{"smiles": "CN(C)CCOC(=O)C(O)(c1ccccc1)C1CCCC1", "note": "(centres undefined)", "activation": "inactive: -2.28%"}
{"smiles": "COc1ccccc1OP(C)(=O)Nc1ccc(Br)cc1", "note": "(centres undefined)", "activation": "inactive: -3.41%"}
{"smiles": "CN(C)C(=O)c1c([N+](=O)[O-])cc([N+](=O)[O-])cc1[N+](=O)[O-]", "activation": "inactive: 0.78%"}
{"smiles": "CC(C)(C)c1ccc(OP(C)(=O)O)cc1", "activation": "inactive: 0.5%"}
{"smiles": "COc1ccccc1OP(C)(=O)Nc1ccccc1Br", "note": "(centres undefined)", "activation": "inactive: 0.1%"}
{"smiles": "CP(=O)(Nc1ccc(Cl)cc1)Oc1ccc(F)cc1", "note": "(centres undefined)", "activation": "inactive: -0.19%"}
{"smiles": "O=C(OCCCN1CCCC1)C(O)(c1ccccc1)C1CCCCC1", "note": "(centres undefined)", "activation": "inactive: -4.48%"}
{"smiles": "COc1ccccc1OP(C)(=O)Nc1c(C)n(C)n(-c2ccccc2)c1=O", "note": "(centres undefined)", "activation": "inactive: -3.77%"}
{"smiles": "CCc1ccc(OP(C)(=O)Nc2cccnc2)cc1", "note": "(centres undefined)", "activation": "inactive: -1.19%"}
{"smiles": "CP(=O)(Oc1ccccc1)N1CCOC1=O", "note": "(centres undefined)", "activation": "inactive: 0.39%"}
